Results published in patent publication US20230398123A1, “METHODS TO TREAT INFLAMMATORY BOWEL DISEASE” (SHANGHAI PHARMACEUTICALS HOLDING CO., LTD., priority 2021, published 2023).

Test system: renin
Settings: low dose of 0.2 mg/kg

SMILES: COC(=O)NCCCn1nc([C@@H](C)N(C(=O)C2CNCCO2)C2CC2)c2ccc(C)nc21 (stereo partly shown) [Formula (I)]
- time for which activity was maintained: 24 h
